Laboratory results: ChEMBL document CHEMBL4340553 (Bioorg Med Chem, 2019)

What was measured:
Homo sapiens [1] = species on record: Homo sapiens; assay: Selectivity index, ratio of IC50 for inhibition of VEGFR (unknown origin) to IC50 for inhibition of c-Met (unknown origin)
Homo sapiens [2] = species on record: Homo sapiens; assay: Selectivity index, ratio of IC50 for inhibition of PDGFRalpha (unknown origin) to IC50 for inhibition of c-Met (unknown origin)
Homo sapiens [3] = species on record: Homo sapiens; assay: Selectivity index, ratio of IC50 for inhibition of RON (unknown origin) to IC50 for inhibition of c-Met (unknown origin)
Homo sapiens [4] = species on record: Homo sapiens; assay: Selectivity index, ratio of IC50 for inhibition of PDGFRbeta (unknown origin) to IC50 for inhibition of c-Met (unknown origin)
Homo sapiens [5] = species on record: Homo sapiens; assay: Selectivity index, ratio of IC50 for inhibition of FLT3 (unknown origin) to IC50 for inhibition of c-Met (unknown origin)
Homo sapiens [6] = species on record: Homo sapiens; assay: Selectivity index, ratio of IC50 for inhibition of FLT1 (unknown origin) to IC50 for inhibition of c-Met (unknown origin)
Homo sapiens [7] = species on record: Homo sapiens; assay: Selectivity index, ratio of IC50 for inhibition of c-Kit (unknown origin) to IC50 for inhibition of c-Met (unknown origin)

Measured: Ratio IC50

COc1cc2c(Oc3ccc(NC(=O)NS(=O)(=O)Cc4ccc(F)cc4)cc3F)ccnc2cc1OCCCN1CCCC1
122 to 347: all assays above
